# Patent US10105380B2, “Glycoclusters and their pharmaceutical use as antibacterials” (priority 2013, dated 2018)
# Sequences of proteins named here, by UniProt entry; tags and fusion partners are left off. Residues count along the entry.
# UniProt Q05097, 2-122: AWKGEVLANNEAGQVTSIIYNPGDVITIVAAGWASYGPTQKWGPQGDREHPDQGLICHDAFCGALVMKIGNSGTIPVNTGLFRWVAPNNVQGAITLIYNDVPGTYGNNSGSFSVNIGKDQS
# Molecular target: PA-IL (Pseudomonas aeruginosa, UniProt Q05097)
# Settings: lactose concentration required to displace 50% of PA-IL from the glycocluster; higher = better binding
# Experimental: IC50 Determination with “on Chip” Biological Recognition
# Lectin PA-IL (0.12 μM final concentration), BSA (2% final concentration) and CaCl2 (1 μg/mL final concentration) was diluted in PBS1× (pH=7.4). In each micro tube was added the inhibitor lactose at the desired final concentration (0; 1.10^−5; 1.10^−4; 5.10^−4; 1.10^−3; 5.10^−3; 1.10^−2; 5.10^−2; 0.1; 1; 5; 10; 50; 10^2; 5.10^2; 10^3; 5.10^3; 10^4; 10^5; 3.10^5).
# 2 μL of each solution were deposited in the corresponding microwells and the slide was incubated at 37° C. in a water vapor saturated chamber for 3 h. The washing steps are: PBS-Tween0.2% 5 min at 4° C., then briefly in deionized water and dried by centrifugation.
# Slide was scanned at 532 nm then at 635 nm with the Microarray scanner, GenePix 4100A software package (Axon Instruments; λex 532/635 nm and λem 575/670 nm). The fluorescence signal of each conjugate was determined as the average of the mean fluorescence signal of sixty-four spots.
# IC50 values were determined using “BioDataFit 1.02 program”. The model chosen was “Sigmoidal”: Y=a+(b−a)/[1+10^(x−c)]
# with a=FImin, b=FImax, x=[…] and c=log(IC50). FImin/max is the minimum/maximum Alexa-647 fluorescence signal observed for a galactomimetic.
# So the IC50 value was called IC50Lac.
substance,measurement,value
Man(POProTzAcNPhe-O-Gal)4 [17d],IC50,2830 µM
